## Apparent affinities of Ab-95 variants for a coronavirus HR2 peptide

Values reported by Engelhart et al. 2022, doi:10.1038/s41597-022-01779-4 (FLAb copy).

All variants were tested on one target, the spike HR2 peptide PDVDLGDISGINAS (SARS-CoV-2).

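Library AAYL52 holds single substitutions and randomly drawn double and triple substitutions in the CDRs. In AlphaSeq, yeast of one mating type display the scFv and yeast of the other type display the target. Pairs that bind mate more often; barcode pairs of the diploids are counted by sequencing. A regression on co-assayed BCL2-family reference pairs converts the normalised counts of each replicate to an apparent Kd. There are three technical replicates.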

Ab-95 is the parent antibody, in scFv form: VH, then a (GGGGS)3 linker, then VL. The heavy chain is unchanged in all variants.
VH: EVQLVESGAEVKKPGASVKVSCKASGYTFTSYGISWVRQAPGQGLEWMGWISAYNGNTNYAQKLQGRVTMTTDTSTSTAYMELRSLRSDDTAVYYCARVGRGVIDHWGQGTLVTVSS
VL: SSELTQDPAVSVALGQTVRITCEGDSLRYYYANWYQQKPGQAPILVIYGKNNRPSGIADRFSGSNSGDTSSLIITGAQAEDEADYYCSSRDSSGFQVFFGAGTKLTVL

Each variant is given by its three light chain CDRs, as the data file delimits them; those of the parent are EGDSLRYYYAN, GKNNRPS, SSRDSSGFQVF. Every variant below is changed at G49 of the VL (sequential numbering). Each Kd is an estimate from the mating assay, the geometric mean of the replicates in which the pair was seen; lower is stronger. A pair that was not seen in any replicate is written "no signal"; this usually means weak binding, but a binder can also be missed. Parent in this assay: reference entry 200 nM, copy in this library 180 nM. Three control strains display no target. For library AAYL52, 28% of the pairings with them gave a signal, with a median of 8.2 µM and one signal in twenty below 800 nM, so weak values seen in few replicates may be background.

* EGDSLRYYYAN / LKNNRPS / SSCDTSGFQVF = 43 µM (2 of 3 replicates)
* ETDSLNYYYAN / DKNNRPS / SSRDSSGFQVF = no signal (0 of 3 replicates)
* EGDSLRYRYAN / HKNNRPS / SSRDSYGFQVF = 6.4 µM (2 of 3 replicates)
* CGDSLRYYYAN / YKNNRPS / SSRDWSGFQVF = 23 µM (2 of 3 replicates)
* EGDSDRYYYAN / VKNNRPS / SSFDSSGFQVF = 11 µM (1 of 3 replicates)
* EGDSLRYYYAN / SFNNRPS / SSRDSSGFQVR = 8.1 µM (1 of 3 replicates)
* EGDSLRYYYTN / AKNNRPS / SSRDSSGFQVW = 24 µM (2 of 3 replicates)
* EGDSLRYYYAN / KKNNRPS / SSLDSSGRQVF = no signal (0 of 3 replicates)
* EGDSLRYYYAN / WKNIRLS / SSRDSSGFQVF = 38 µM (1 of 3 replicates)
* EGDSLRYYYAN / MKNNRPS / SSRDSSHFQVS = 30 µM (2 of 3 replicates)
* EGDSLMYYYAN / MKNNRPS / SSRDNSGFQVF = no signal (0 of 3 replicates)
* EGDSLRYYYAN / CQNNRPS / SSRDSGGFQVF = 17 µM (2 of 3 replicates)
* EGDSLRYYYAN / CKNNRPS / SSRDISGFQVR = 160 µM (2 of 3 replicates)
* EVDSLRPYYAN / NKNNRPS / SSRDSSGFQVF = 1.1 µM (2 of 3 replicates)
* EGDSLRYYYAN / EKNNRPH / SSRDSSGFQVF = 1.0 µM (3 of 3 replicates)
* EGDSLRQYYAN / DKNNRPS / SSRDSSSFQVF = 9.0 µM (2 of 3 replicates)
* EGDSLRYYYAN / RKNNRPS / SSRKSWGFQVF = 6.1 µM (1 of 3 replicates)
* EGDSLRYYYAN / NKNNRPS / SSRDSLGFQVF = 16 µM (3 of 3 replicates)
* EGDSLRYYYAN / YKNNRPS / SNRDSSQFQVF = 16 µM (1 of 3 replicates)
* EGDSLRYYYAN / MKNNRPP / SSRTSSGFQVF = 42 µM (2 of 3 replicates)
* EPDSLRYYYPN / FKNNRPS / SSRDSSGFQVF = 17 µM (2 of 3 replicates)
* EGDNLRYYYAN / KKNARPS / SSRDSSGFQVF = no signal (0 of 3 replicates)
* EGDSLRYYKAN / TKNNRPA / SSRDSSGFQVF = 46 µM (3 of 3 replicates)
* EGDSLRYYYAN / VKNLNPS / SSRDSSGFQVF = 7.0 µM (2 of 3 replicates)
* EGDSLRYYYAN / IKNNRPS / ISRDSTGFQVF = 65 µM (1 of 3 replicates)
* EGDSLRYYYAN / WKNQRKS / SSRDSSGFQVF = 15 µM (2 of 3 replicates)
* ENDSLRYYYAN / SKNNRPS / VSRDSSGFQVF = 12 µM (1 of 3 replicates)
* EGDSLRYHYAN / SKNKRPS / SSRDSSGFQVF = 53 nM (3 of 3 replicates)
* EGHSRRYYYAN / KKNNRPS / SSRDSSGFQVF = 82 µM (2 of 3 replicates)
* EGDSLRYEYAN / RKNNRPS / SSRDSSGFQAF = 2.4 µM (2 of 3 replicates)
* EGDSLRYYYAN / YKNNRRS / SSRDSSGPQVF = 6.0 µM (2 of 3 replicates)
* EGDGLRYYVAN / NKNNRPS / SSRDSSGFQVF = 11 µM (1 of 3 replicates)
* EGDSLRYYYAL / FKNNRPS / SSRDSSGFQVF = 7.7 µM (1 of 3 replicates)
* EGDSLRYHYAN / LKNNRPS / SSIDSSGFQVF = 230 nM (3 of 3 replicates)
* EGDSLRYYAAN / RKNNRPS / SSFDSSGFQVF = no signal (0 of 3 replicates)
* EGDSLRYYYAN / KKNNRPS / SSRDSSGFQVF = 18 µM (1 of 3 replicates)
* EGDSLRYYYAN / PLINRPS / SSRDSSGFQVF = 39 µM (2 of 3 replicates)
* MGDSLRYQYAN / TKNNRPS / SSRDSSGFQVF = 24 nM (3 of 3 replicates)
* EGDSLRYYYAN / NKNNRPS / SSRDSSGFQVS = 6.2 µM (3 of 3 replicates)
* EGDSLRYHYAN / VKNNRPS / SERDSSGFQVF = no signal (0 of 3 replicates)
* EGSSLRYYCAN / NKNNRPS / SSRDSSGFQVF = 270 nM (3 of 3 replicates)
* EGDSLRYYYAN / RKNNRAS / SLRDSSGFQVF = no signal (0 of 3 replicates)
* QGDSLRYYYAN / HKNNRPS / SSRDSSNFQVF = no signal (0 of 3 replicates)
* EGDSLRWYYAN / MKNNEPS / SSRDSSGFQVF = no signal (0 of 3 replicates)
* EGDSLRYYYAN / YKNNRPA / SSRDSSGYQVF = no signal (0 of 3 replicates)
* EGDSHRGYYAN / YKNNRPS / SSRDSSGFQVF = 4.8 µM (1 of 3 replicates)
* EGDSLRYYYAN / CKQNRPS / SSRDSSGFFVF = 6.5 µM (3 of 3 replicates)
* EGDSLRYYYFN / MKNGRPS / SSRDSSGFQVF = 12 µM (3 of 3 replicates)
* EKDSLRYYYAN / PKNNRPS / SSRDSSGFQSF = 2.1 µM (1 of 3 replicates)
* EGDSLRYYYAE / MKNNRPS / SSFDSSGFQVF = no signal (0 of 3 replicates)
* EGDSLRYYYAN / TKNNRPS / VSRDSSGFQNF = no signal (0 of 3 replicates)

Extract of 7 entries:

| CDR-L1 | CDR-L2 | CDR-L3 | apparent Kd | detected |
|---|---|---|---|---|
| EGDSHRGYYAN | YKNNRPS | SSRDSSGFQVF | 4.8 µM | 1 of 3 |
| ETDSLNYYYAN | DKNNRPS | SSRDSSGFQVF | no signal | 0 of 3 |
| EGDGLRYYVAN | NKNNRPS | SSRDSSGFQVF | 11 µM | 1 of 3 |
| ENDSLRYYYAN | SKNNRPS | VSRDSSGFQVF | 12 µM | 1 of 3 |
| EGSSLRYYCAN | NKNNRPS | SSRDSSGFQVF | 270 nM | 3 of 3 |
| EGDSLRYYYAN | YKNNRPA | SSRDSSGYQVF | no signal | 0 of 3 |
| EGDSLRYYYAN | WKNQRKS | SSRDSSGFQVF | 15 µM | 2 of 3 |